The values that follow are results of earlier work, collected in patent publication US20260285867A1, “IMIDAZOTRIAZINE DERIVATIVES AS IL-17 MODULATORS” (UCB BIOPHARMA SRL, priority 2023, published 2026).

Chains of the proteins cited; added tags and fusions are not shown. Residues count along the entry.
UniProt Q16552, 24-155 limits assumed: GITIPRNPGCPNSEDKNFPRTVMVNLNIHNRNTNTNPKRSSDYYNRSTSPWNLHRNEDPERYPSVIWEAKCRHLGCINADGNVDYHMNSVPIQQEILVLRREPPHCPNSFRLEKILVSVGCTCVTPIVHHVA

The data set concerns the target IL-17A (Homo sapiens, UniProt Q16552). Particulars: comparative data, values as stated in WO 2023/275301; cited from earlier work.

In general, pIC50 refers to the IC50 on a negative log10 scale, so that one unit is a factor of ten. In the case of `Cc1nonc1C(=O)N[C@H](c1cn2ncc(C3(C(=O)NCC(C)(F)F)CCOCC3)nc2n1)C1CCC(F)(F)CC1`, the pIC50 is 7.9.

For `Cc1nonc1C(=O)N[C@H](c1cn2ncc(C3(C(=O)NCC(C)(F)F)CCN(C4COC4)CC3)nc2n1)C1CCC(F)(F)CC1`, the pIC50 is 7.8.
